For this experiment the following is noted: 10 mM sodium phosphate buffer; tested 5, 10, 25 and 50 ppm; inoculum size 5×10^3.

In the case of `CC[C@H](C)[C@H](N)C(=O)N[C@@H](CC(C)C)C(=O)N1CCC[C@H]1C(=O)N[C@@H](Cc1c[nH]c2ccccc12)C(=O)N[C@@H](CCCCN)C(=O)N[C@@H](Cc1c[nH]c2ccccc12)C(=O)N1CCC[C@H]1C(=O)N[C@@H](Cc1c[nH]c2ccccc12)C(=O)N[C@@H](Cc1c[nH]c2ccccc12)C(=O)N1CCC[C@H]1C(=O)N[C@@H](Cc1c[nH]c2ccccc12)C(=O)N[C@@H](CCCNC(=N)N)C(=O)N[C@@H](CCCNC(=N)N)C(N)=O` [Indolicidin], the MIC entry is “about 5 ppm”.
